Test [1] addresses Lsa-nAChR2 (α3β1β2) (Lepeophtheirus salmonis, UniProt A0A7S5PZ03+A0A7S5PZ05+A0A7S5Q7H3). Kind of test: cell-based. Here is the method: (§1) Capped cRNAs were synthesized (T7 mMessage mMachine kit, Ambion, Austin, TX, USA) from the linearized vectors containing the different subunits according to the manufacturer’s protocol. cRNA samples were stored at -80°C until use. Oocytes were ordered from Ecocyte (Germany). Oocytes were microinjected using a Roboinject automatic injection system (Multi Channel Systems, Reutlingen, Germany) with 15–25 nl of cRNA solution (30–300 ng/μl per subunit) and then incubated at 18°C in sterile filtered Barth solution containing: NaCl (88 mM), KCl (1 mM), NaHCO3 (2.4 mM), HEPES (10 mM, pH 7.5), MgSO4·7H2O (0.82 mM), Ca(NO3)2·4H2O (0.33 mM), CaCl2·6H2O (0.41 mM), at pH 7.4, and supplemented with 20 μg/ml of kanamycin, 100 U/ml benzylpenicillin and 100 μg/ml streptomycin. Recordings were made 3–5 days post-cRNA injection.
(§2) Oocytes were impaled with two electrodes filled with 3 M KCl, and their membrane potentials were maintained at -80 mV throughout the experiment. Currents evoked by ACh or drugs were recorded using an automated process equipped with standard two-electrode voltage-clamp configuration (HiClamp, MultiChannel Systems). The principle of this system differs from standard electrophysiology because, instead of applying the compound in the perfusion, the oocyte is moved into a well from a 96-well microtiter plate containing the desired solution. Data were captured at 100 Hz, filtered at 10 Hz, and analyzed using proprietary data acquisition and analysis software running under Matlab (Mathworks Inc., Natick, MA, USA). Additional analyses were performed in Excel (Microsoft, Redmond, WA, USA). […] Concentration-activation curves were fitted with the equation: Y=100/1+10^H(logEC50−X) (1) where Y is the normalized response, logEC50 is the logarithm of the concentration of agonist eliciting half-maximal current amplitude, X is the log of dose or concentration, and H is the slope factor or Hill slope. Individual curves were standardized to the initial ACh (100 μM) application amplitude and subsequently averaged. EC50 values were determined from the mean of at least 3 or more cells.
(§3) Dose-response curves were obtained by sequential applications for 10s of increasing concentrations of ACh or drugs to oocytes expressing Lsa-nAChR1 or Lsa-nAChR2. A total time of 90 s time was allowed between applications for the channel to recover from any desensitization. To test the antagonistic effect of DHbE (Fig 5) and for the screening protocol (Fig 6), cells that evoked a significant current with ACh were exposed to the test compounds at 10 μM respectively 1 μM using a pre-application of 45 s and co-application of 10 s with ACh (1 μM).

Test [2] addresses Lsa-nAChR1 (α1α2β1β2) (Lepeophtheirus salmonis, UniProt A0A7S5PZ05+A0A7S5Q3W4+A0A7S5Q7H3+A0A7S5U9A3). Kind of test: cell-based. As to the method: as §1, §2, §3

pEC50: −log10 of the molar value. Several values for one entry are separate records, joined by “and”; a condition that tells them apart may be missing. Identical values can stand only once.

Turning to `CC(=O)OCC[N+](C)(C)C` [Acetylcholine], the concentration for a half-maximal effect (EC50) in test [1] (EC50 (nM)) is 1820 nM; in test [1] (Mean EC50 (μM) ± SD), 1230 nM and 1930 nM; in test [2] (EC50 (nM)) it was 1960 nM; in test [2] (Mean EC50 (μM) ± SD), 2110 nM and 2010 nM. In addition, the pEC50 in test [1] (calculated EC50) is 5.74.

The record behind these values is publication PMC7419010 (PLoS Pathogens, 2020).
